Data from DBAASP.
Values after ≈ are worked out from the molar mass of the structure shown.

Tests used:
Experiment in all cases: ≥ marks a high value that may be exact or a test limit, other limits are often not marked, values filed in µg/mL are converted to µM
[1] = system: Erwinia amylovora PMV 6076
[2] = system: Xanthomonas campestris pv. Vesicatoria 2133-2
[3] = system: Pseudomonas syringae pv. syringae EPS 94

CC[C@H](C)[C@H](NC(=O)[C@H](CC(C)C)NC(=O)[C@H](C)NC(=O)[C@@H]1CCCN1C(=O)[C@H](CC(C)C)NC(=O)CNC(=O)[C@@H](NC(=O)[C@@H](NC(=O)[C@H](CC(C)C)NC(=O)[C@H](Cc1ccc(O)cc1)NC(=O)[C@H](CCCCN)NC(=O)[C@H](CC(C)C)NC(=O)[C@@H](NC(=O)[C@H](CCCCN)NC(=O)[C@H](CCCCN)NC(=O)[C@H](Cc1ccccc1)NC(=O)[C@H](CC(C)C)NC(=O)[C@H](CCCCN)NC(=O)[C@@H](N)CCCCN)[C@@H](C)CC)[C@@H](C)O)[C@@H](C)O)C(=O)N[C@@H](CO)C(=O)N[C@@H](Cc1c[nH]c2ccccc12)C(=O)O [KKLFKKILKYLTTGLPALISW]
MIC [1]: 3.54 µM (≈ 8.7 µg/mL) | MIC [2]: 1.77 µM (≈ 4.35 µg/mL) | MIC [3]: 3.54 µM (≈ 8.7 µg/mL)
